From ChEMBL document CHEMBL1764952, “A novel application of DDQ as electrophile in the Nenitzescu reaction” (Bioorg Med Chem, 2011) come the findings set out here.

Amino acid sequences for entries named in this document (tags omitted).
UniProt P19784, whole entry: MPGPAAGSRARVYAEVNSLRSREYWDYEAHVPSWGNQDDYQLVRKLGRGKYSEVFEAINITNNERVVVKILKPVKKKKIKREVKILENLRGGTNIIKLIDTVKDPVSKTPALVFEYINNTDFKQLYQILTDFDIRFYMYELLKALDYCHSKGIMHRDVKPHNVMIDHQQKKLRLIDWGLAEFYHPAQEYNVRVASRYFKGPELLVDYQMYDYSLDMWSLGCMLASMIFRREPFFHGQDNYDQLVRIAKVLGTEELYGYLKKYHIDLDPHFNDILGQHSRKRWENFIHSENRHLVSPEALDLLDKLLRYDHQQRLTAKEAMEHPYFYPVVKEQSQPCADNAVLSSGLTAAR
UniProt P67870, whole entry: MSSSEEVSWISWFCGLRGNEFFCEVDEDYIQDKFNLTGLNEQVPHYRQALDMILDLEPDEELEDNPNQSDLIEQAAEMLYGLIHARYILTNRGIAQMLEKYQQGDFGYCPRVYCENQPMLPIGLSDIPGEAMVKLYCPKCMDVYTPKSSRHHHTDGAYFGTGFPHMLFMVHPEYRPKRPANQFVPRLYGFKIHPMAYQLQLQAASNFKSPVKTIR
UniProt P68400, whole entry: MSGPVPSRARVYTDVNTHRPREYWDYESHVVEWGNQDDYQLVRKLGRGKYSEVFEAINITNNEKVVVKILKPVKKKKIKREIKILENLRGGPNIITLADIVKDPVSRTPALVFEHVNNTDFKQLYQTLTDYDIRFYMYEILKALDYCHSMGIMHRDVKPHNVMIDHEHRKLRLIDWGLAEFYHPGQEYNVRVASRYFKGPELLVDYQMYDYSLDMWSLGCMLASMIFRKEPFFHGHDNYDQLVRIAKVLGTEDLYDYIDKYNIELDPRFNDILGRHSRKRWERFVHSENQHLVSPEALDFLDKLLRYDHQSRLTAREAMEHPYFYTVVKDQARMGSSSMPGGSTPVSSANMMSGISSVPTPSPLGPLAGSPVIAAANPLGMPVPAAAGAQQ

In general, IC50 refers to the point on the concentration scale where inhibition reaches its midpoint.

For the assay, the target named is Casein kinase II (Homo sapiens, UniProt P19784+P67870+P68400). Briefly: Inhibition of human recombinant CK2 using RRRDDDSDDD-EDANS peptide substrate by capillary electrophoresis analysis. Format: protein-complex assay.

With `CC(C)=CC(=O)c1oc2c(Cl)c(Cl)c(O)c(C#N)c2c1N`, the IC50 worked out at 200 nM.
